Measurements published in article PMC3871595, “Structure Based Identification and Characterization of Flavonoids That Disrupt Human Papillomavirus-16 E6 Function” (PLoS ONE, 2013).

The chains behind the UniProt entries cited, without tags or fusion partners.
UniProt P03126, whole entry: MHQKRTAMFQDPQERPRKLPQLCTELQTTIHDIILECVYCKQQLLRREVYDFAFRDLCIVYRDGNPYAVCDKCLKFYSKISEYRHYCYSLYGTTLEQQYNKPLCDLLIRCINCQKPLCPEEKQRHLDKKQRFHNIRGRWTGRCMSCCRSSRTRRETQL

Biological target: T1, GST-HPV-16 E6 (human papillomavirus type 16, UniProt P03126 1-158)
T1 construct: early protein 6 (E6) of human papillomavirus type 16; also called GST-E6; GST-16 E6; source: E. coli BL21, purified on glutathione Sepharose beads and kept on the beads
Test: filter plate bead binding assay (BAP chemiluminescence); saturation binding: GST-E6 at 500 ng per well (400 nM) while E6AP-BAP concentration was increased
Conditions: both partners purified

B1: E6AP-BAP fusion protein (E6AP residues 371-440 fused to bacterial alkaline phosphatase) (domain or fragment, UniProt Q05086 371-440, looked up)
chain: ASKCLKMVYYANVVGGEVDTNHNEEDDEEPIPESSELTLQELLGEERRNKKGPRVDPLETELGVKTLDCR
notes: also called FLAG-tagged E6AP-BAP; source: E. coli BL21, purified (anti-FLAG resin, glycine pH 2.5 elution)
Kd: 139 nM
